Experimental data as given in patent publication US20200317660A1, “Quinazolinone Compound and Application Thereof” (LUOXIN PHARMACEUTICAL (SHANGHAI) CO., LTD., priority 2017, published 2020).

Sequences of proteins named here, by UniProt entry; tags and fusion partners are left off.
UniProt P42336, whole entry: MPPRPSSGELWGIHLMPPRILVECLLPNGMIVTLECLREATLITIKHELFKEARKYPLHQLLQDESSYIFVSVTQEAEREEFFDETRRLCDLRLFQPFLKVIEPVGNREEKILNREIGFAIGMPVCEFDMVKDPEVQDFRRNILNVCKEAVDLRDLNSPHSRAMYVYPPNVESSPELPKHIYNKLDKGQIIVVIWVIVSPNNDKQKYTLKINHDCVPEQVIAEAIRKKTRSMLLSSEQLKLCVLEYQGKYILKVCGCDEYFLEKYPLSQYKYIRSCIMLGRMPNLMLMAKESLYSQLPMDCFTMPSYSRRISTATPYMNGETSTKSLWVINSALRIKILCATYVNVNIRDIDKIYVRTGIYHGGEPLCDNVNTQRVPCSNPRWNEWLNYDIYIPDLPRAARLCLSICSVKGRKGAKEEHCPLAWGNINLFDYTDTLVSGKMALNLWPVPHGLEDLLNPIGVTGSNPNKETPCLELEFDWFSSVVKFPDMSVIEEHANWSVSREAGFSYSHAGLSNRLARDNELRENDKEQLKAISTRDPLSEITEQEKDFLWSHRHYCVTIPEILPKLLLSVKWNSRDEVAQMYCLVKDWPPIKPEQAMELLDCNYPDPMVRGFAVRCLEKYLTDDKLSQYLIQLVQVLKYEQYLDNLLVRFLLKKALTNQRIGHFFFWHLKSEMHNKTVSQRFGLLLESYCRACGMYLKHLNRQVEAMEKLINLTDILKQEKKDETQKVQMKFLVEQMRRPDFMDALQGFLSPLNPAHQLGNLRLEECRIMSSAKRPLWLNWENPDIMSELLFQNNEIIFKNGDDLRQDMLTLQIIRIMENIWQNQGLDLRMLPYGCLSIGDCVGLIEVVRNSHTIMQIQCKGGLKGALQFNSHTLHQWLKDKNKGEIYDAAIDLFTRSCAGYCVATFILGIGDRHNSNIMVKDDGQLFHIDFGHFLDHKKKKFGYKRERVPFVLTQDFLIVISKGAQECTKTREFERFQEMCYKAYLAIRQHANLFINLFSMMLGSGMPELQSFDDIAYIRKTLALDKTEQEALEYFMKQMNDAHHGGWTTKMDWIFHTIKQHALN
UniProt P42338, whole entry: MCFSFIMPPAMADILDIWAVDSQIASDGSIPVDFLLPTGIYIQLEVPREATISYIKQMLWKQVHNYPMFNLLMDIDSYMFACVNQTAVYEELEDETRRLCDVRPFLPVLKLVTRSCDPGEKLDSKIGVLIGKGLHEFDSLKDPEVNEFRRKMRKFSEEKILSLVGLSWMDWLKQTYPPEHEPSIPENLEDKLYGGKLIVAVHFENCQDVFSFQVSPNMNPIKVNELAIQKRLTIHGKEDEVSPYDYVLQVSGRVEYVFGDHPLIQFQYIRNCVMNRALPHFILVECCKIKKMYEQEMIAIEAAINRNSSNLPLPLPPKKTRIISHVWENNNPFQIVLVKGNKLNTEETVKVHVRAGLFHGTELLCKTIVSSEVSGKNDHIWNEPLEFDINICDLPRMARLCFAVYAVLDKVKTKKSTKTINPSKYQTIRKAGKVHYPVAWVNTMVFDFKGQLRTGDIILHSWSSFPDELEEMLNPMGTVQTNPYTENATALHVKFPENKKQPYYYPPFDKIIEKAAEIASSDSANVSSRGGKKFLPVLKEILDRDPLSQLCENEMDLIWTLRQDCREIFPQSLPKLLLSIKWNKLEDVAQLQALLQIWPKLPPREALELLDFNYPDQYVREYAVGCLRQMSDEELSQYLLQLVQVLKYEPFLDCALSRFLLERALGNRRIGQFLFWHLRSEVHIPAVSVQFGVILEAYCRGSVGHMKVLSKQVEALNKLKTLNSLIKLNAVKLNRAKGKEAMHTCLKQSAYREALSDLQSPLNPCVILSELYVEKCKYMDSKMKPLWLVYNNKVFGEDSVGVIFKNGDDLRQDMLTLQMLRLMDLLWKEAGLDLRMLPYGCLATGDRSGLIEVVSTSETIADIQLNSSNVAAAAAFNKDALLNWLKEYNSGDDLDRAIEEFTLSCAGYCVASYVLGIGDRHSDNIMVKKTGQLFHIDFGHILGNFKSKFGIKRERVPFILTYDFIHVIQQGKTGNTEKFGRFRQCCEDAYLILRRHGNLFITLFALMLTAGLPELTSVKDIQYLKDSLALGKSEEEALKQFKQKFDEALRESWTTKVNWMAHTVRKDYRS
UniProt P27986, whole entry partner: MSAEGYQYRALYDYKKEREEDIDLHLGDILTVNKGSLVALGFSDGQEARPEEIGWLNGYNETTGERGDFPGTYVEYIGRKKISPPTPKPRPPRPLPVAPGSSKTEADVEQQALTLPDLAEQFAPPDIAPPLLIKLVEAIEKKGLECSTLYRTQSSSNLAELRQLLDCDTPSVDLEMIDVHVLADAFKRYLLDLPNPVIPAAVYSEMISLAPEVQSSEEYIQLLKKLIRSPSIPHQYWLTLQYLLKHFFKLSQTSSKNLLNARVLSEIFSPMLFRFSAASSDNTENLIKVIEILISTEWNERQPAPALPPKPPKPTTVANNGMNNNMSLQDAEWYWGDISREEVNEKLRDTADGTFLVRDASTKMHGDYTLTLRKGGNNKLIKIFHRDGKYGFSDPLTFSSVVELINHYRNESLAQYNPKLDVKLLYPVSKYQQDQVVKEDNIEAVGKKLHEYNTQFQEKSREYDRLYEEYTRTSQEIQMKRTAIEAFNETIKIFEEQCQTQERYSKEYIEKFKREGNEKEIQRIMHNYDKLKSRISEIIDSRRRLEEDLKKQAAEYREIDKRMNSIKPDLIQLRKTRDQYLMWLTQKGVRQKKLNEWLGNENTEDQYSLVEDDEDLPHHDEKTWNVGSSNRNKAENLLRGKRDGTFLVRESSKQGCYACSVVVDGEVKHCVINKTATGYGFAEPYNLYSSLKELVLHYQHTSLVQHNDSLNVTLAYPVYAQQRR

Tests used:
PI3Kα = PI3Kα (Homo sapiens, UniProt P42336); experiment: In vitro test of enzyme activity (ADP-Glo lipokinase), PI3K alpha; settings: read-out: PI3Kα IC50, 40 μM ATP, 50 μM PIP2:3PS, 120 min
PI3Kβ = PI3Kβ (Homo sapiens, UniProt P42338); experiment: In vitro test of enzyme activity (ADP-Glo lipokinase), PI3K beta; settings: read-out: PI3Kβ IC50, 40 μM ATP, 50 μM PIP2:3PS, 120 min

IC50 (PI3Kα) [nM] | IC50 (PI3Kβ) [nM] | Structure (SMILES)
9.85 | 1050 | CNC(=O)[C@H]1C[C@@H](n2cnc3ccc(-c4cncc(NS(=O)(=O)c5ccc(F)cc5Cl)c4)cc3c2=O)C1
3.69 | 746 | CNC(=O)[C@H]1C[C@H](n2cnc3ccc(-c4cncc(NS(=O)(=O)c5ccc(F)cc5Cl)c4)cc3c2=O)C1
6.19 | 720 | COc1ncc(-c2ccc3ncn(CC(C)C(=O)NC4CC4(F)F)c(=O)c3c2)cc1NS(=O)(=O)c1ccc(F)cc1Cl (stereo not shown)
 | 500 | CNC(=O)C(C)Cn1cnc2ccc(-c3cnc(N(C)C)c(NS(=O)(=O)c4ccc(F)cc4Cl)c3)cc2c1=O (single isomer, unassigned)
 | 5460 | CNC(=O)C(C)Cn1cnc2ccc(-c3cnc(N)c(NS(=O)(=O)c4ccc(F)cc4Cl)c3)cc2c1=O (single isomer, unassigned)
3.58 | 222 | CNC(=O)C(C)Cn1cnc2ccc(-c3cnc(OC)c(NS(=O)(=O)c4cc(C)cc(Cl)c4)c3)cc2c1=O (single isomer, unassigned)
7.04 | 312 | CNC(=O)C(C)Cn1cnc2ccc(-c3cnc(OC)c(NS(=O)(=O)c4ccc(Cl)c(C)c4)c3)cc2c1=O (single isomer, unassigned)
5.12 | 133 | CNC(=O)C(C)Cn1cnc2ccc(-c3cnc(OC)c(NS(=O)(=O)c4ccccc4F)c3)cc2c1=O (single isomer, unassigned)
6.77 | 182 | CNC(=O)C(C)Cn1cnc2ccc(-c3cnc(OC)c(NS(=O)(=O)c4sccc4C)c3)cc2c1=O (single isomer, unassigned)
5.4 | 928 | Cc1ccsc1S(=O)(=O)Nc1cc(-c2ccc3ncn(CC(C)C(N)=O)c(=O)c3c2)cnc1C (single isomer, unassigned) [WX026]
9.01 | 582 | Cc1ccsc1S(=O)(=O)Nc1cc(-c2ccc3ncn(CC(C)C(N)=O)c(=O)c3c2)cnc1C (single isomer, unassigned) [WX027]
0.61 | 139 | Cc1nc(C)c(S(=O)(=O)Nc2cc(-c3ccc4ncn(CC(C)C(N)=O)c(=O)c4c3)cnc2C)s1 (single isomer, unassigned) [WX032]
1.09 | 126 | Cc1nc(C)c(S(=O)(=O)Nc2cc(-c3ccc4ncn(CC(C)C(N)=O)c(=O)c4c3)cnc2C)s1 (single isomer, unassigned) [WX033]
15.3 | 1070 | COc1ncc(-c2ccc3ncn(CC(C)C(=O)NCC(C)C)c(=O)c3c2)cc1NS(=O)(=O)c1ccc(F)cc1Cl (single isomer, unassigned) [WX073]
12.3 | 386 | COc1ncc(-c2ccc3ncn(CC(C)C(=O)NC4CCC4)c(=O)c3c2)cc1NS(=O)(=O)c1ccc(F)cc1Cl (single isomer, unassigned) [WX075]
7.69 | 305 | COc1ncc(-c2ccc3ncn(CC(C)C(=O)NC4CC4)c(=O)c3c2)cc1NS(=O)(=O)c1ccc(F)cc1Cl (single isomer, unassigned) [WX077]
11.1 | 447 | COc1ncc(-c2ccc3ncn(CC(C)C(=O)NC(C)C)c(=O)c3c2)cc1NS(=O)(=O)c1ccc(F)cc1Cl (single isomer, unassigned) [WX079]
3.55 | 150 | COc1ncc(-c2ccc3ncn(CC(C)C(=O)NCCO)c(=O)c3c2)cc1NS(=O)(=O)c1ccc(F)cc1Cl (single isomer, unassigned) [WX081]
4.57 | 192 | COc1ncc(-c2ccc3ncn(CC(C)C(=O)NC4COC4)c(=O)c3c2)cc1NS(=O)(=O)c1ccc(F)cc1Cl (single isomer, unassigned) [WX082]
2.09 | 548 | COc1ncc(-c2ccc3ncn(CC(C)C(=O)NC4COC4)c(=O)c3c2)cc1NS(=O)(=O)c1ccc(F)cc1Cl (single isomer, unassigned) [WX083]
3.94 | 124 | CNC(=O)C(C)Cn1cnc2ccc(-c3cnc(OC)c(NS(=O)(=O)c4ccc(F)cc4F)c3)cc2c1=O (single isomer, unassigned) [WX090]
4.32 | 455 | CNC(=O)C(C)Cn1cnc2ccc(-c3cnc(OC)c(NS(=O)(=O)c4c(C)noc4C)c3)cc2c1=O (single isomer, unassigned) [WX094]
10 | 492 | CNC(=O)C(C)Cn1cnc2ccc(-c3cnc(OC)c(NS(=O)(=O)c4cccc(C(F)(F)F)c4)c3)cc2c1=O (single isomer, unassigned) [WX098]
3.99 | 159 | CNC(=O)C(C)Cn1cnc2ccc(-c3cnc(OC)c(NS(=O)(=O)c4ccccc4C(F)(F)F)c3)cc2c1=O (single isomer, unassigned) [WX100]
4.1 | 94.4 | CNC(=O)C(C)Cn1cnc2ccc(-c3cnc(OC)c(NS(=O)(=O)c4c(F)cccc4F)c3)cc2c1=O (single isomer, unassigned) [WX102]

IC50 (PI3Kα) [nM] | IC50 (PI3Kβ) [nM] | Structure (SMILES)
54.6 | 2260 | CNC(=O)C(C)Cn1cnc2cc(F)c(-c3cnc(OC)c(NS(=O)(=O)c4ccc(F)cc4Cl)c3)cc2c1=O (single isomer, unassigned) [WX122]
9.27 | 268 | CNC(=O)C(C)Cn1cnc2ccc(-c3cnc(OC)c(NS(=O)(=O)c4ccc(F)cc4Cl)c3)c(F)c2c1=O (single isomer, unassigned) [WX123]
7.18 | 674 | CNC(=O)C(C)Cn1cnc2ccc(-c3cnc(OC)c(NS(=O)(=O)c4ccc(F)cc4Cl)c3)c(F)c2c1=O (single isomer, unassigned) [WX124]
7.11 | 215 | CNC(=O)C(C)Cn1cnc2ccc(-c3cnc(OC)c(NS(=O)(=O)c4ccc(Cl)cc4)c3)cc2c1=O (single isomer, unassigned) [WX130]
3.76 | 312 | CNC(=O)C(C)Cn1cnc2ccc(-c3cnc(OC)c(NS(=O)(=O)c4ccc(Cl)cc4)c3)cc2c1=O (single isomer, unassigned) [WX131]
8.26 | 261 | CNC(=O)C(C)Cn1cnc2ccc(-c3cnc(OC)c(NS(=O)(=O)c4ccc(F)c(F)c4)c3)cc2c1=O (single isomer, unassigned) [WX132]
5.02 | 466 | CNC(=O)C(C)Cn1cnc2ccc(-c3cnc(OC)c(NS(=O)(=O)c4ccc(F)c(F)c4)c3)cc2c1=O (single isomer, unassigned) [WX133]
4.71 | 101 | CNC(=O)C(C)Cn1cnc2ccc(-c3cnc(OC)c(NS(=O)(=O)c4ccc(C)cc4F)c3)cc2c1=O (single isomer, unassigned) [WX134]
2.32 | 166 | CNC(=O)C(C)Cn1cnc2ccc(-c3cnc(OC)c(NS(=O)(=O)c4ccc(C)cc4F)c3)cc2c1=O (single isomer, unassigned) [WX135]
5.22 | 203 | CNC(=O)C(C)Cn1cnc2ccc(-c3cnc(OC)c(NS(=O)(=O)c4cccc(Cl)c4C)c3)cc2c1=O (single isomer, unassigned) [WX138]
18.7 | 543 | CNC(=O)C(C)Cn1cnc2ccc(-c3cnc(OC)c(NS(=O)(=O)c4cccc(C)c4)c3)cc2c1=O (single isomer, unassigned) [WX140]
9.76 | 745 | CNC(=O)C(C)Cn1cnc2ccc(-c3cnc(OC)c(NS(=O)(=O)c4cccc(C)c4)c3)cc2c1=O (single isomer, unassigned) [WX141]
6.11 | 81.2 | CNC(=O)C(C)Cn1cnc2ccc(-c3cnc(OC)c(NS(=O)(=O)c4ccc(Cl)cc4F)c3)cc2c1=O (single isomer, unassigned) [WX142]
3.56 | 128 | CNC(=O)C(C)Cn1cnc2ccc(-c3cnc(OC)c(NS(=O)(=O)c4ccc(Cl)cc4F)c3)cc2c1=O (single isomer, unassigned) [WX143]
24 | 631 | CNC(=O)C(C)Cn1cnc2ccc(-c3cnc(OC)c(NS(=O)(=O)c4cc(C)cc(C)c4)c3)cc2c1=O (single isomer, unassigned) [WX144]
2.7 | 95.4 | CNC(=O)C(C)Cn1cnc2ccc(-c3cnc(OC)c(NS(=O)(=O)c4ccccc4Cl)c3)cc2c1=O (single isomer, unassigned) [WX146]
7.69 | 381 | CNC(=O)C(C)Cn1cnc2ccc(-c3cnc(OC)c(NS(=O)(=O)c4ccc(C(F)(F)F)cc4)c3)cc2c1=O (single isomer, unassigned) [WX148]
1.67 | 81 | CNC(=O)C(C)Cn1cnc2ccc(-c3cnc(OC)c(NS(=O)(=O)c4cccc(Cl)c4Cl)c3)cc2c1=O (single isomer, unassigned) [WX150]
2.84 | 159 | CNC(=O)C(C)Cn1cnc2ccc(-c3cnc(OC)c(NS(=O)(=O)c4ccc(Cl)cc4Cl)c3)cc2c1=O (single isomer, unassigned) [WX152]
7.22 | 620 | CNC(=O)C(C)Cn1cnc2ccc(-c3cnc(OC)c(NS(=O)(=O)c4ccc(F)c(C)c4)c3)cc2c1=O (single isomer, unassigned) [WX154]
13 | 411 | CNC(=O)C(C)Cn1cnc2ccc(-c3cnc(OC)c(NS(=O)(=O)c4ccc(F)c(C)c4)c3)cc2c1=O (single isomer, unassigned) [WX155]
 | 2100 | CCOc1ncc(-c2ccc3ncn(CC(C)C(=O)NC)c(=O)c3c2)cc1NS(=O)(=O)c1ccc(F)cc1Cl (single isomer, unassigned) [WX159]
9.18 | 201 | CNC(=O)C(C)Cn1cnc2ccc(-c3cnc(OC)c(NS(=O)(=O)c4cccc(F)c4)c3)cc2c1=O (single isomer, unassigned) [WX162]
6.51 | 268 | CNC(=O)C(C)Cn1cnc2ccc(-c3cnc(OC)c(NS(=O)(=O)c4cccc(F)c4)c3)cc2c1=O (single isomer, unassigned) [WX163]
8.24 | 178 | CNC(=O)C(C)Cn1cnc2ccc(-c3cnc(OC)c(NS(=O)(=O)c4cccc(Cl)c4)c3)cc2c1=O (single isomer, unassigned) [WX164]
